Results reported in article PMC12786078, “Identification of Novel JAK2 Inhibitors from Amino Derivatives of Epoxyalantolactone: In Silico and In Vitro Studies” (International Journal of Molecular Sciences, 2025).

System: HeLa cells
Assay: Annexin V-FITC/PI apoptosis detection by flow cytometry
Details: 48 h, at IC50 (SL10 8 µM, SL35 6 µM, ruxolitinib 25 µM)

Compound `N#CC[C@H](C1CCCC1)n1cc(-c2ncnc3[nH]ccc23)cn1` [Ruxolitinib, reference compound] has an early apoptosis of 22.65 ± 2.71% and a late apoptosis of 10.61 ± 0.40%.
